Source: patent US8481532B2, “PDE-10 inhibitors” (EnVivo Pharmaceuticals, Inc., priority 2008, dated 2013)

Protein sequences, listed by entry. Tags and fused reporters are not part of them. Residues count along the entry.
UniProt Q9Y233, 1-779 isoform Q9Y233-1: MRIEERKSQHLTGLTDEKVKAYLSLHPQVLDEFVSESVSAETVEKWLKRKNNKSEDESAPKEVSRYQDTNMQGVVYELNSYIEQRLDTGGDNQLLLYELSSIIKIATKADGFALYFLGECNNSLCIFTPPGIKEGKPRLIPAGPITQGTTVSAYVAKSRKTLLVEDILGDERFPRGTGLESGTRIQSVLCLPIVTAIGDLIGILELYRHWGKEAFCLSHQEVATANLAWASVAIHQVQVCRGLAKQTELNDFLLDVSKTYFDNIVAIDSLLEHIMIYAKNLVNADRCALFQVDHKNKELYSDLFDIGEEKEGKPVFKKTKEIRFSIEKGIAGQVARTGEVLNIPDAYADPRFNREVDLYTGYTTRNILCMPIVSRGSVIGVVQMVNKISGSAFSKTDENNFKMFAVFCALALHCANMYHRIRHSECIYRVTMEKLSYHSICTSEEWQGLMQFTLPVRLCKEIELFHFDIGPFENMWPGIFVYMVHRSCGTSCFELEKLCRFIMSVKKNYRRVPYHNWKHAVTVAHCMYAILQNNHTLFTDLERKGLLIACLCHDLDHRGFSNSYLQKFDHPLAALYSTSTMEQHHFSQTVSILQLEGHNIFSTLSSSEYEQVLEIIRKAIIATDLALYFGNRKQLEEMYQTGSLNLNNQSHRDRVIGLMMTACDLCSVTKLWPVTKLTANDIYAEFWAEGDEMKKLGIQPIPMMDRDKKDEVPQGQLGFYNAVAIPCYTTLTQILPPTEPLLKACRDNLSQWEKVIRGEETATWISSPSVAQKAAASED

Target: Human PDE10A1 (Homo sapiens, UniProt Q9Y233)
Assay: hPDE10A1 Enzyme Inhibition ([3H]-cAMP scintillation assay)
Format: biochemical
Settings: Human PDE10A1, [3H]-cAMP substrate, 20 minutes at 37° C.; read-out: hPDE10A1 IC50 Band
Description: • hPDE10A1 Enzyme Activity: […] samples of serially diluted Human PDE10A1 enzyme were incubated with 50 μl of [^3H]-cAMP for 20 minutes (at 37° C.). Reactions were carried out in Greiner 96 deep well 1 ml master-block. The enzyme was diluted in 20 mM Tris HCl pH7.4 and [^3H]-cAMP was diluted in 10 mM MgCl2, 40 mM Tris.HCl pH 7.4. The reaction was terminated by denaturing the PDE enzyme (at 70° C.) after which [^3H]-5′-AMP was converted to [^3H]-adenosine by adding 25 μl snake venom nucleotidase and incubating for 10 minutes (at 37° C.). Adenosine, being neutral, was separated from charged cAMP or AMP by the addition of 200 μl Dowex resin. Samples were shaken for 20 minutes then centrifuged for 3 minutes at 2,500 r.p.m. 50 μl of supernatant was removed and added to 200 μl of MicroScint-20 in white plates (Greiner 96-well Optiplate) and shaken for 30 minutes before reading on Perkin Elmer TopCount Scintillation Counter. • hPDE10A1 Enzyme Inhibition: To check inhibition profile 11 μl of serially diluted inhibitor was added to 50 μl of [^3H]-cAMP and 50 μl of diluted Human PDE10A1 and assay was carried out as in the enzyme activity assay. Data was analysed using Prism software (GraphPad Inc).

(E)-2-(4-cyclohexylphenyl)-N′-(isoquinolin-5-ylmethylene)cyclopropanecarbohydrazide [Example 195]
IC50: < 1000 nM
